Experimental data from publication PMC4669685, “Peptides derived from the dependence receptor ALK are proapoptotic for ALK-positive tumors” (Cell Death & Disease, 2015).

System: ALK phosphorylation in Cost cells
Assay: Western blot of ALK tyrosine phosphorylation
Format: cell-based, human
Details: 24 or 48 h, P36 10 μM, PF 0.5 μM or both

`CC(Oc1cc(-c2cnn(C3CCNCC3)c2)cnc1N)c1c(Cl)ccc(F)c1Cl` (stereo not shown) [PF, 3-[1-(2,6-dichloro-3-fluoro-phenyl)-ethoxy]-5-(1-piperidin-4-yl-1H-pyrazol-4-yl)-pyridin-2-ylamine] was tested, and the “level of ALK tyrosine phosphorylation” value was “decreased ALK phosphorylation”.
